pEC50: −log10 of the molar value.
Assays:
human CB1 = human CB1 (Homo sapiens (Human), UniProt P21554); test: In vitro cannabinoid receptor activity assay (calcium mobilization, FLIPR) in CHO cells expressing human CB1 and Gαq16; assay type: cell-based
Experimental: (§1) In vitro cannabinoid receptor activity assay. Chinese Hamster Ovary (CHO) cells stably expressing either human CB1 or CB2 cDNA and the promiscuous G-protein Gαq16 were transferred to each well of a black Costar 96-well optical bottom plate (Corning Corporation). Each plate was incubated at 37° C. for 24 hr to confluence. The culture media was removed from the plates and cells were subsequently loaded with a fluorescent calcium probe (Calcium 5 dye, Molecular Devices) at a final loading concentration of 2 μM in a HBSS-based buffer containing 20 mM HEPES, 1% BSA and 10 μM Probenecid (Sigma) in a total volume of 225 μl. Cells were incubated at 37° C. for 1 hr and then stimulated with various concentrations of a test agent using a FLIPR Tetra plate-reader, which automatically added the agonist at 10× concentration to each well after reading baseline values for ˜17 sec. Agonist-mediated change in fluorescence (488 nm excitation, 525 nm emission) was monitored in each well at 1 sec intervals for 60 sec and reported for each well. Data were analyzed using Prism software (GraphPad). Non-linear regression analysis was performed to fit data and obtain maximum response (Emax), effective concentration for 50% response (EC50), correlation coefficient (r2) and other parameters. All experiments were performed 3-6 times to ensure reproducibility. […]

Protein sequences, listed by entry. Tags and fused reporters are not part of them.
UniProt P21554, whole entry: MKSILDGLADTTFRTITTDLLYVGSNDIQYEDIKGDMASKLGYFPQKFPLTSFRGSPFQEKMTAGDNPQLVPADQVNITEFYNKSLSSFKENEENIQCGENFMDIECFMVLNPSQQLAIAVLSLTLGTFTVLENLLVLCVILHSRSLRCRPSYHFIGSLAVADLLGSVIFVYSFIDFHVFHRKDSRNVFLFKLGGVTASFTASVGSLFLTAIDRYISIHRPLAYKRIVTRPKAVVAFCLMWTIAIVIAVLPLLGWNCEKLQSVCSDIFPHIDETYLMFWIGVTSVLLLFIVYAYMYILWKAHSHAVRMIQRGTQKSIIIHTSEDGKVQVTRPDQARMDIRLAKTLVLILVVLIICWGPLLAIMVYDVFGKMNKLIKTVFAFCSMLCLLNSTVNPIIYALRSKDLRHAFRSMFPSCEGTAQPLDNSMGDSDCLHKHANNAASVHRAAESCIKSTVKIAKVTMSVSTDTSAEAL
UniProt P34972, whole entry: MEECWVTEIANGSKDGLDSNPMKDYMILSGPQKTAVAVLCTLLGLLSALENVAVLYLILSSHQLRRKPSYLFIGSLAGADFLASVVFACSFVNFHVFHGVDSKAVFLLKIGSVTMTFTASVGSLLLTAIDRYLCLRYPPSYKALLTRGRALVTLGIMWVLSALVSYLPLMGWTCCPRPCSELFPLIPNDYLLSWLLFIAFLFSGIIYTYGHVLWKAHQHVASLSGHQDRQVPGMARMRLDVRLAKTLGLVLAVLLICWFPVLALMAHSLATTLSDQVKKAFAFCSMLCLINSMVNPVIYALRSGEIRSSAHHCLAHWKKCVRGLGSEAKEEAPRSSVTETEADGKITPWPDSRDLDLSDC

human CB2 = human CB2 (Homo sapiens (Human), UniProt P34972); test: In vitro cannabinoid receptor activity assay (calcium mobilization, FLIPR) in CHO cells expressing human CB2 and Gαq16; assay type: cell-based; details: percentage of the maximum CP55940 signal
Experimental: as §1

For `CC(=O)Nc1cccc(C(C)(C)NC(=O)c2nn(Cc3ccc(F)cc3)c3ccccc23)c1`, the “hCB1 Ca Span” value (human CB1; percentage of the maximum CP55940 signal, hCB1) was 15%, the pEC50 (human CB1; read-out: hCB1 Ca EC50, CHO cells, hCB1, calcium fluorescence) was 6.10 and the “hCB2 Ca Span” value (human CB2) was 67%.

Source: patent US20230339863A1, “INDAZOLE DERIVATIVES AS CANNABINOID RECEPTOR PARTIAL AGONISTS” (RESEARCH TRIANGLE INSTITUTE, priority 2020, published 2023)
